The text below walks through data of ChEMBL document CHEMBL5725471, “Tetrahydro-benzodiazepinones” (2018).

Chains of the proteins cited; added tags and fusions are not shown.
UniProt P98170, whole entry: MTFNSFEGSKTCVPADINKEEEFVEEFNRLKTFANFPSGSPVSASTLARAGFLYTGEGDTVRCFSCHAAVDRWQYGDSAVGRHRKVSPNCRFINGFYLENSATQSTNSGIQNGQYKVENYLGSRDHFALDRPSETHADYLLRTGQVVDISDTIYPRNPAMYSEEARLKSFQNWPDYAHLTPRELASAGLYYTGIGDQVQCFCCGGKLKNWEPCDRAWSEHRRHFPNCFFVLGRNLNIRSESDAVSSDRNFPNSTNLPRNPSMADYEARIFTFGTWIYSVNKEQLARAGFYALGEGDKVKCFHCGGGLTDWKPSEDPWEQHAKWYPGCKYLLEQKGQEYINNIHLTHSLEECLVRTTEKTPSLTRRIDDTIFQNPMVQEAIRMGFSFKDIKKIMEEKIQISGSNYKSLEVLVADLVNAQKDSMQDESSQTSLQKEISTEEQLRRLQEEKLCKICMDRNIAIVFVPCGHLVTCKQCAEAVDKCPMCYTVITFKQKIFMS

Each structure is given as a SMILES string.

The target of the assay is E3 ubiquitin-protein ligase XIAP (Homo sapiens, UniProt P98170).
A word on the IC50: it is the concentration needed to halve the response being measured. Lower therefore signals greater potency in that assay. With `CN[C@@H](C)C(=O)N[C@H]1CN(C(=O)c2ccc(C(=O)NCC3CCCCC3)cc2)c2ccccc2N(Cc2c(OC)ccc3cc(Br)ccc23)C1=O`, the IC50 was over 54.8 µM.

On to `CN[C@@H](C)C(=O)N[C@H]1CN(C(=O)c2ccc(C#N)cc2)c2ccccc2N(Cc2c(OC)ccc3cc(Br)ccc23)C1=O`, for which the IC50 was found to be 42.8 µM.

For the molecule `CN[C@@H](C)C(=O)N[C@H]1CN(C(=O)c2ccc(N)cc2)c2ccccc2N(Cc2c(OC)ccc3cc(Br)ccc23)C1=O`, half-maximal inhibition (IC50) required 22.1 µM. This IC50 lies about 1.9-fold lower than the previous one.

For `CN[C@@H](C)C(=O)N[C@H]1CN(C(=O)CC(C)C)c2ccccc2N(Cc2ccccc2OC)C1=O`, the IC50 is over 54.8 µM. The molecule `CN[C@@H](C)C(=O)N[C@H]1CN(C(=O)c2ccc(C(N)=O)cc2)c2ccccc2N(Cc2c(OC)ccc3cc(Br)ccc23)C1=O` showed an IC50 of 52.7 µM. In other words, the double-digit micromolar range. To `CN[C@@H](C)C(=O)N[C@H]1CN(C(=O)CCC[N+](=O)[O-])c2ccccc2N(Cc2c(OC)ccc3cc(Br)ccc23)C1=O` belongs over 54.8 µM; to `CN[C@@H](C)C(=O)N[C@H]1CN(C(=O)c2ccc(C(O)(O)C(F)(F)F)cc2)c2ccccc2N(Cc2c(OC)ccc3cc(Br)ccc23)C1=O`, over 54.8 µM; to `COc1ccc2cc(Br)ccc2c1CN1C(=O)[C@@H](NC(=O)[C@H](C)N(C)C)CN(C(=O)c2ccc(C(C)=O)cc2)c2ccccc21`, over 54.8 µM. In the case of `CN[C@@H](C)C(=O)N[C@H]1CN(C(=O)c2ccc(Cl)cc2)c2ccccc2N(Cc2c(C)ccc3ccccc23)C1=O` it was 32.8 µM.
